34 compounds from US20250195530A1, “POLQ INHIBITORS” (ASTRAZENECA AB, priority 2022, published 2025) can be followed below.

The chains behind the UniProt entries cited, without tags or fusion partners. Residues count along the entry.
UniProt O75417, 1780-2590: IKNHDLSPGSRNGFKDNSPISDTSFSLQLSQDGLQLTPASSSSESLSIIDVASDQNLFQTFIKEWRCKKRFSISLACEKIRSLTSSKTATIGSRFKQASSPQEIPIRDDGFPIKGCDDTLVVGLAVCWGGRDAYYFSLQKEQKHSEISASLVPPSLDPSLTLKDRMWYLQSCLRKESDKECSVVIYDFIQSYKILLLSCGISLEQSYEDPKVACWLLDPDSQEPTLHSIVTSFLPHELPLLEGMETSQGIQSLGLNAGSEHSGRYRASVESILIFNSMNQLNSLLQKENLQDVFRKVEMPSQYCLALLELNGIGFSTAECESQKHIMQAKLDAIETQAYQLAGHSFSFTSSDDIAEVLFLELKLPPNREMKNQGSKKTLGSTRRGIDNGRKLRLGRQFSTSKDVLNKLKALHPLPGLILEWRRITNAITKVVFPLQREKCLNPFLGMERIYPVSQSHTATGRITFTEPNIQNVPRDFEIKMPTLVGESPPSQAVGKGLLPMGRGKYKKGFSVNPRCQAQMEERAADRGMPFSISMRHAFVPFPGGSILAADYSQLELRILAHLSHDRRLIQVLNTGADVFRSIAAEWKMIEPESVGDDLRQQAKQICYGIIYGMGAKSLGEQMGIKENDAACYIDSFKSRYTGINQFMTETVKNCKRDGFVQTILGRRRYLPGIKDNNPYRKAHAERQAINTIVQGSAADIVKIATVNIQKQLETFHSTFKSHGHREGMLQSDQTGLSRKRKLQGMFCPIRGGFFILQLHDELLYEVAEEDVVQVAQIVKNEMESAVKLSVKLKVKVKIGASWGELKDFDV

The experiment concerns the target isolated polymerase domain (I1780-V2590) of DNA polymerase theta (Polθ) (Homo sapiens (Human), UniProt O75417).

With `CC1(Oc2ncnc3c2nc(-c2ccc(OCCN4CCNCC4)cc2Cl)n3CCc2ccncc2)CC1` [Example L1, 8-(2-chloro-4-(2-(piperazin-1-yl)ethoxy)phenyl)-6-(1-methylcyclopropoxy)-9-(2-(pyridin-4-yl)ethyl)-9H-purine], the midpoint of inhibition, the IC50, lay at 25.1 nM. With `Cc1ccnc(Cn2c(-c3ccc(OCCN4CCNCC4)cc3Cl)nc3c(OC4(C)CC4)ncnc32)c1` [Example L2, 8-(2-chloro-4-(2-(piperazin-1-yl)ethoxy)phenyl)-6-(1-methylcyclopropoxy)-9-((4-methylpyridin-2-yl)methyl)-9H-purine] the figure was 2.51 nM; with `Cc1cnc(Cn2c(-c3ccc(OCCN4CCNCC4)cc3Cl)nc3c(OC4(C)CC4)ncnc32)s1` [Example L3, 2-((8-(2-chloro-4-(2-(piperazin-1-yl)ethoxy)phenyl)-6-(1-methylcyclopropoxy)-9H-purin-9-yl)methyl)-5-methylthiazole], 3.16 nM; with `CC1(Oc2ncnc3c2nc(-c2ccc(OCCN4CCNCC4)cc2Cl)n3Cc2cc(C#N)ccn2)CC1` [Example L4, 2-((8-(2-chloro-4-(2-(piperazin-1-yl)ethoxy)phenyl)-6-(1-methylcyclopropoxy)-9H-purin-9-yl)methyl)isonicotinonitrile], 2 nM.

As for `COc1ccnc(Cn2c(-c3ccc(OCCN4CCNCC4)cc3Cl)nc3c(OC4(C)CC4)ncnc32)c1` [Example L5, 8-(2-chloro-4-(2-(piperazin-1-yl)ethoxy)phenyl)-9-((4-methoxypyridin-2-yl)methyl)-6-(1-methylcyclopropoxy)-9H-purine], the IC50 was 6.31 nM. `CC1(Oc2ncnc3c2nc(-c2ccc(OCCN4CCNCC4)cc2Cl)n3Cc2ncc(Cl)s2)CC1` [Example L6, 5-chloro-2-((8-(2-chloro-4-(2-(piperazin-1-yl)ethoxy)phenyl)-6-(1-methylcyclopropoxy)-9H-purin-9-yl)methyl)thiazole] had an IC50 of 3.16 nM.

`CC1(Oc2ncnc3c2nc(-c2ccc(OCCN4CCNCC4)cc2Cl)n3Cc2csc(Cl)n2)CC1` [Example L7, 2-chloro-4-((8-(2-chloro-4-(2-(piperazin-1-yl)ethoxy)phenyl)-6-(1-methylcyclopropoxy)-9H-purin-9-yl)methyl)thiazole] had an IC50 of 7.94 nM. Compared with the last compound, the IC50 is about 2.5-fold higher. The result for `Cc1ccc(Cn2c(-c3ccc(OCCN4CCNCC4)cc3Cl)nc3c(OC4(C)CC4)ncnc32)nc1` [Example L8, 8-(2-chloro-4-(2-(piperazin-1-yl)ethoxy)phenyl)-6-(1-methylcyclopropoxy)-9-((5-methylpyridin-2-yl)methyl)-9H-purine] reads 6.31 nM; that for `Cc1cccnc1Cn1c(-c2ccc(OCCN3CCNCC3)cc2Cl)nc2c(OC3(C)CC3)ncnc21` [Example L9, 8-(2-chloro-4-(2-(piperazin-1-yl)ethoxy)phenyl)-6-(1-methylcyclopropoxy)-9-((3-methylpyridin-2-yl)methyl)-9H-purine], 12.6 nM; that for `COc1cccnc1Cn1c(-c2ccc(OCCN3CCNCC3)cc2Cl)nc2c(OC3(C)CC3)ncnc21` [Example L10, 8-(2-chloro-4-(2-(piperazin-1-yl)ethoxy)phenyl)-9-((3-methoxypyridin-2-yl)methyl)-6-(1-methylcyclopropoxy)-9H-purine], 12.6 nM. The compound `CC1(Oc2ncnc3c2nc(-c2ccc(N4CC(N)C4)cc2Cl)n3Cc2ccccc2)CC1` [Example M1, 1-(4-(9-benzyl-6-(1-methylcyclopropoxy)-9H-purin-8-yl)-3-chlorophenyl)azetidin-3-amine] gave an IC50 of 6.31 nM. With `CC1(Oc2ncnc3c2nc(-c2ccc(N4CCC(N)CC4)cc2Cl)n3Cc2ccccc2)CC1` [Example M2, 1-(4-(9-benzyl-6-(1-methylcyclopropoxy)-9H-purin-8-yl)-3-chlorophenyl)piperidin-4-amine] the figure was 3.98 nM; with `CC1(Oc2ncnc3c2nc(-c2ccc(N4CCNC(=O)C4)cc2Cl)n3Cc2ccccc2)CC1` [Example M3, 4-(4-(9-benzyl-6-(1-methylcyclopropoxy)-9H-purin-8-yl)-3-chlorophenyl)piperazin-2-one], 6.31 nM. The result for `CC1(Oc2ncnc3c2nc(-c2ccc(/C=C/C(=O)O)cc2Cl)n3Cc2ccccc2)CC1` [Example M4, (E)-3-(4-(9-benzyl-6-(1-methylcyclopropoxy)-9H-purin-8-yl)-3-chlorophenyl)acrylic acid] reads 5.01 nM; that for `CC1(Oc2ncnc3c2nc(-c2ccc(OCCN4CCNCC4=O)cc2Cl)n3Cc2ccccc2)CC1` [Example M5, 1-(2-(4-(9-benzyl-6-(1-methylcyclopropoxy)-9H-purin-8-yl)-3-chlorophenoxy)ethyl)piperazin-2-one], 3.98 nM. With `CN(C)C(=O)c1ccc(-c2nc3c(OC4(C)CC4)ncnc3n2Cc2ccccc2)c(Cl)c1` [Example N1, 4-(9-benzyl-6-(1-methylcyclopropoxy)-9H-purin-8-yl)-3-chloro-N,N-dimethylbenzamide] the figure was 20 nM; with `CNC(=O)c1ccc(-c2nc3c(OC4(C)CC4)ncnc3n2Cc2ccccc2)c(Cl)c1` [Example N2, 4-(9-benzyl-6-(1-methylcyclopropoxy)-9H-purin-8-yl)-3-chloro-N-methylbenzamide], 5.01 nM; with `CC1(Oc2ncnc3c2nc(-c2ccc(C(=O)N4CCNCC4)cc2Cl)n3Cc2ccccc2)CC1` [Example N3, (4-(9-benzyl-6-(1-methylcyclopropoxy)-9H-purin-8-yl)-3-chlorophenyl)(piperazin-1-yl)methanone], 31.6 nM. Consider `CC1(Oc2ncnc3c2nc(-c2ccc(C(N)=O)cc2Cl)n3Cc2ccccc2)CC1` [Example N4, 4-(9-benzyl-6-(1-methylcyclopropoxy)-9H-purin-8-yl)-3-chlorobenzamide], for which half-maximal inhibition (IC50) was put at 3.16 nM. Compared with the last compound, the IC50 is about 10-fold lower. With `CC1(Oc2ncnc3c2nc(-c2ccc(CN4CCCC4)cc2Cl)n3Cc2ccccc2)CC1` [Example N5, 9-benzyl-8-(2-chloro-4-(pyrrolidin-1-ylmethyl)phenyl)-6-(1-methylcyclopropoxy)-9H-purine] the figure was 15.8 nM; with `CC1(Oc2ncnc3c2nc(-c2ccc(CN4CCNCC4)cc2Cl)n3Cc2ccccc2)CC1` [Example N6, 9-benzyl-8-(2-chloro-4-(piperazin-1-ylmethyl)phenyl)-6-(1-methylcyclopropoxy)-9H-purine], 6.31 nM; with `CC1(Oc2ncnc3c2nc(-c2ccc(CN)cc2Cl)n3Cc2ccccc2)CC1` [Example N7, (4-(9-benzyl-6-(1-methylcyclopropoxy)-9H-purin-8-yl)-3-chlorophenyl)methanamine], 3.98 nM.

As for `COc1ccc(-c2nc3c(OC4(C)CC4)ncnc3n2Cc2ccccc2)c(Cl)c1` [Example N8, 9-Benzyl-8-(2-chloro-4-methoxyphenyl)-6-(1-methylcyclopropoxy)-9H-purine], the IC50 was 3.16 nM. This IC50 and that of the compound before are within 1.5-fold of each other.

In the case of `COc1ncccc1-c1nc2c(OC3(C)CC3)ncnc2n1Cc1ccccc1` [Example N9, 9-benzyl-8-(2-methoxypyridin-3-yl)-6-(1-methylcyclopropoxy)-9H-purine], the IC50 was 10 nM. With `CC1(Oc2cccc3c2nc(-c2ccc(OCCN4CCNCC4)cc2Cl)n3Cc2ccccn2)CCC1` [Example P1, 2-(2-chloro-4-(2-(piperazin-1-yl)ethoxy)phenyl)-4-(1-methylcyclobutoxy)-1-(pyridin-2-ylmethyl)-1H-benzo[d]imidazole] the figure was 3.16 nM; with `CC1(Oc2cccc3c2nc(-c2ccc(OCCN4CCNCC4)cc2Cl)n3Cc2ccccc2)CCC1` [Example P2, 1-benzyl-2-(2-chloro-4-(2-(piperazin-1-yl)ethoxy)phenyl)-4-(1-methylcyclobutoxy)-1H-benzo[d]imidazole], 6.31 nM; with `CC1(Oc2ccnc3c2nc(-c2ccc(OCCN4CCNCC4)cc2Cl)n3Cc2ccccn2)CCC1` [Example P3, 2-(2-chloro-4-(2-(piperazin-1-yl)ethoxy)phenyl)-7-(1-methylcyclobutoxy)-3-(pyridin-2-ylmethyl)-3H-imidazo[4,5-b]pyridine], 6.31 nM.

`CC1(Oc2ccnc3c2nc(-c2ccc(OCCN4CCNCC4)cc2Cl)n3Cc2ccccc2)CCC1` [Example P4, 3-benzyl-2-(2-chloro-4-(2-(piperazin-1-yl)ethoxy)phenyl)-7-(1-methylcyclobutoxy)-3H-imidazo[4,5-b]pyridine] showed an IC50 of 6.31 nM.

Take `C#CC1(Oc2ncnc3c2nc(-c2ccc(OCCN4CCNCC4)cc2Cl)n3Cc2ccccc2)CC1` [Example Q1, 9-benzyl-8-(2-chloro-4-(2-(piperazin-1-yl)ethoxy)phenyl)-6-(1-ethynylcyclopropoxy)-9H-purine]: inhibition was half-maximal at 2.51 nM (IC50). With `CCC1(Oc2ncnc3c2nc(-c2ccc(OCCN4CCNCC4)cc2Cl)n3Cc2ccccc2)CC1` [Example Q2, 9-benzyl-8-(2-chloro-4-(2-(piperazin-1-yl)ethoxy)phenyl)-6-(1-ethylcyclopropoxy)-9H-purine] the figure was 2.51 nM; with `C#CC1(Oc2ncnc3c2nc(-c2ccc(OCCN4CCNCC4)cc2Cl)n3Cc2ccccc2)CCC1` [Example Q3, 9-benzyl-8-(2-chloro-4-(2-(piperazin-1-yl)ethoxy)phenyl)-6-(1-ethynylcyclobutoxy)-9H-purine], 3.16 nM. With `Clc1cccc(Cn2c(-c3ccc(OCCN4CCNCC4)cc3Cl)nc3c(OC4CC4)ncnc32)c1` [Example Q4, 8-(2-chloro-4-(2-(piperazin-1-yl)ethoxy)phenyl)-9-(3-chlorobenzyl)-6-cyclopropoxy-9H-purine] the figure was 2 nM; with `N#CC1(Oc2ncnc3c2nc(-c2ccc(OCCN4CCNCC4)cc2Cl)n3Cc2cccc(Cl)c2)CC1` [Example Q5, 1-((8-(2-chloro-4-(2-(piperazin-1-yl)ethoxy)phenyl)-9-(3-chlorobenzyl)-9H-purin-6-yl)oxy)cyclopropane-1-carbonitrile], 5.01 nM. The result for `CC1(Oc2ncnc3c2nc(-c2ccc(OCCN4CC5(CC(O)C5)C4)cc2Cl)n3Cc2cc(Cl)ccn2)CC1` [Example R1, 2-(2-(3-chloro-4-(9-((4-chloropyridin-2-yl)methyl)-6-(1-methylcyclopropoxy)-9H-purin-8-yl)phenoxy)ethyl)-2-azaspiro[3.3]heptan-6-ol] reads 2.51 nM.
